# OPERA 2.9 data: boiling point values

Values as listed in the OPERA 2.9 repository of K. Mansouri.

The boiling point refers to atmospheric pressure (760 mmHg), by the definition of the set.
The databases behind each value are named after "via".

structure (SMILES),boiling point (°C),via
O=C(Br)C(F)(F)C(F)(F)C(F)(F)C(F)(F)F,81,ChemicalBook
CC1(C)NC(=O)NC1=O,312.9,eChemPortal
Cc1cccc(Cl)c1C,191.3,eChemPortal
CCCCOCC(C)OCC(C)O (configuration not stated),229.9,eChemPortal
CCCCC[N+](=O)[O-],172,OCHEM
CCOCC1CCC(COCC)CC1 (configuration not stated),244.9,eChemPortal
C[Si](NC1CCCCC1)(NC1CCCCC1)NC1CCCCC1,315,eChemPortal
O=C(O)C(F)(F)C(F)OC(F)(F)C(F)(F)C(F)(F)OC(F)(F)F (configuration not stated),183.3,eChemPortal
C=CCOCC(O)CO (configuration not stated),245,eChemPortal
C/C=C/CCc1ccc(-c2ccc(C)cc2)cc1,367,eChemPortal
CCCCC[C@@H]1C(=O)CC[C@H]1C(=O)OC,283,eChemPortal
CCCCCCCCC=COCC,220.8,eChemPortal
CCCCCCCCCCCCCCCC[Si](OC)(OC)OC,351.1,eChemPortal
FC(F)(F)OC(F)(F)OC(F)(Cl)C(F)(F)Cl (configuration not stated),72,eChemPortal
C/C=C/CC[C@H]1CC[C@H]([C@H]2CC[C@H](CCC)CC2)CC1,365.8,eChemPortal
Cc1cc(Cc2cc(C)c(O)c(C)c2)cc(C)c1O,240,eChemPortal
CC(=O)Oc1c(C)c(C)nc2c(F)cc(C(C)(C)C)cc12,380,OCHEM
O=C(OCCOC(=O)c1ccccc1)c1ccccc1,365,eChemPortal
COCCOCCOCCOB(OCCOCCOCCOC)OCCOCCOCCOC,345,eChemPortal
CC(=O)On1ccccc1=O,303,eChemPortal
O=C(/C=C/c1ccco1)c1ccccc1,317,OCHEM
C=CCCc1ccc(-c2ccc(-c3ccc(CC)cc3)cc2F)cc1,460,eChemPortal
CN(C)[Si](C)(CCC(F)(F)C(F)(F)C(F)(F)C(F)(F)C(F)(F)C(F)(F)C(F)(F)C(F)(F)F)N(C)C,74,ChemicalBook
CCCCOC(=O)C1CCC(O)CC1 (configuration not stated),274.5,eChemPortal
C[Si](C)(C)O[Si](C)(C(F)(F)C(F)(F)C(F)(F)CCC(F)(F)F)C(F)(F)C(F)(F)C(F)(F)CCC(F)(F)F,150,ChemicalBook
C[SiH2]Cl,7,OCHEM
Cc1cc(CC(C)C)ccc1CCC=O,284,eChemPortal
CCOC(=O)/C=C(\NC)C(F)(F)F,171,eChemPortal
CC(C)CCCCCCOC(=O)c1ccc(C(=O)OCCCCCCC(C)C)cc1,359,eChemPortal
CC(C)(C)c1cc(C(C)(C)c2ccc(O)c(C(C)(C)C)c2)ccc1O,433.2,OFMPub
CCN(C(=O)N(CC)c1ccccc1)c1ccccc1,326.8,"PubChem, eChemPortal"
Sc1cccc(S)c1,245,OCHEM
O=C1OC(C(Cl)(Cl)Cl)OC1C(Cl)(Cl)Cl (configuration not stated),272,OCHEM

The last 4 entries again:

| structure (SMILES) | boiling point (°C) | via |
|---|---|---|
| CC(C)(C)c1cc(C(C)(C)c2ccc(O)c(C(C)(C)C)c2)ccc1O | 433.2 | OFMPub |
| CCN(C(=O)N(CC)c1ccccc1)c1ccccc1 | 326.8 | PubChem, eChemPortal |
| Sc1cccc(S)c1 | 245 | OCHEM |
| O=C1OC(C(Cl)(Cl)Cl)OC1C(Cl)(Cl)Cl (configuration not stated) | 272 | OCHEM |

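The OPERA project collected these measurements from public sources as training and test data for property models. One number stands for a compound and property, with no spread given. Method, purity and exact conditions of the single measurements are not given. Where a salt, mixture or single isomer is drawn, the source does not say that exactly this form was tested. Unmarked limits or estimates from the upstream databases cannot be ruled out.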